The chains behind the UniProt entries cited, without tags or fusion partners.
UniProt P34972, whole entry: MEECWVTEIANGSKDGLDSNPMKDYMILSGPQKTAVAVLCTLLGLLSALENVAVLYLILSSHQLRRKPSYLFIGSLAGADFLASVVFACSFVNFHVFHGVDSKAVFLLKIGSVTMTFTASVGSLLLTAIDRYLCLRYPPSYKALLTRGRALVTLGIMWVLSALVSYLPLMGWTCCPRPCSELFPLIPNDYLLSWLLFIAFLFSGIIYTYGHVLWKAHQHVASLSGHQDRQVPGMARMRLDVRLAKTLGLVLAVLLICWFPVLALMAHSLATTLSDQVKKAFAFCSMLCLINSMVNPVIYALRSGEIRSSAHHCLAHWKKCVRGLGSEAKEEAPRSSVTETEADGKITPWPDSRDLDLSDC

In patent publication US9416118B2, “Docosahexaenoyl ethanolamides” (The Brigham and Women's Hospital, Inc., priority 2011, dated 2016):

Target: human CB2 receptor (Homo sapiens, UniProt P34972)
Assay: CB2 beta-arrestin receptor activation (PathHunter chemiluminescence)
Format: cell-based
Protocol: FIG. 4. […] Ligand receptor interactions were determined by increases in chemiluminescence generated upon interaction of the EA labeled beta arrestin with the Pro-Link tagged receptor (see Methods). […] See text for more details.
Receptor activation with the CB2 beta arrestin system was carried out essentially as in (20,21). HEK cells stably overexpressing human CB2 receptor tagged with Pro-Link and EA labeled beta-arrestin (Discoverx, Fremont Calif.) were plated at 20,000 cells/well of a 96 well plate. […] Ligand receptor interaction was determined by measuring chemiluminescence using the Pathhunter EFC detection kit (Discoverx, Fremont, Calif.), generated upon coupling of the EA labeled beta arrestin with the Pro-Link tagged receptor, with a plate reader (Envision, Perkin Elmer, Santa Clara, Calif.).
To this end, recombinant human CB receptors were overexpressed in a beta-arrestin system as described in Experimental Procedures.

CCCCC/C=C\C/C=C\C/C=C\C/C=C\CCCC(=O)NCCO [AEA, arachidonoylethanolamide]
EC50: ~0.11 nM
